Test results from patent US11730714B2, “Compounds for the treatment of neuromuscular disorders” (NMD PHARMA A/S, priority 2017, dated 2023).

Amino acid sequences for entries named in this document (tags omitted).
UniProt P35524, whole entry: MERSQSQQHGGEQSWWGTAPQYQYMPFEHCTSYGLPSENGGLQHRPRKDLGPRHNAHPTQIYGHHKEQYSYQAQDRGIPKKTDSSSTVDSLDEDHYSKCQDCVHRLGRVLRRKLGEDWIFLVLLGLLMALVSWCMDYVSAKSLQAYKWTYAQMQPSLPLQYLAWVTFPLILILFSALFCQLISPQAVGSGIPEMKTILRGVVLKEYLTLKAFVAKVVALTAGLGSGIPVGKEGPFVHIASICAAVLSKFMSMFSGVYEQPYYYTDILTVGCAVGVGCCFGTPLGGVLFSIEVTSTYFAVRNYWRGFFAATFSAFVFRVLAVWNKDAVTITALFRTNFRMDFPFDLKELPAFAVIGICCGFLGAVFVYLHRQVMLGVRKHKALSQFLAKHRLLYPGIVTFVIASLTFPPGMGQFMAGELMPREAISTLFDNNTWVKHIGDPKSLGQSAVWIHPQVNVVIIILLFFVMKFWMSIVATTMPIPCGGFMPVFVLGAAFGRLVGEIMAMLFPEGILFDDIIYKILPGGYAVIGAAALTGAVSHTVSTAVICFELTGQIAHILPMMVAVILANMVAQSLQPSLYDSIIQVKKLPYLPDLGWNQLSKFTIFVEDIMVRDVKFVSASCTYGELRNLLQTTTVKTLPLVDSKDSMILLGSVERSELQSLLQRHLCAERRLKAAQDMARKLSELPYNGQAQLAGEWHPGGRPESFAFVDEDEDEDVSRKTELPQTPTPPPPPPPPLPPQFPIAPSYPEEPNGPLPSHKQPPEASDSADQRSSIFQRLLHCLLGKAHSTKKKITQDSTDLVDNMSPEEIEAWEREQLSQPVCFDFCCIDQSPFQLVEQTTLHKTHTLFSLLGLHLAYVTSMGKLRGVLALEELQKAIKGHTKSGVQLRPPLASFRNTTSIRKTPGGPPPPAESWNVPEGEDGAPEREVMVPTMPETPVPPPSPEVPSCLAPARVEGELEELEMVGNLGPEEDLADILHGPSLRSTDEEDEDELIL

Target: CIC-1 channels (Rattus norvegicus, UniProt P35524)
Experiment: Electrophysiological measurement of compound inhibition of CIC-1 in rat muscle (Gm, EC50)
Conditions: read-out: EC50 (inhibition of ClC-1 ion channel, Gm); rat soleus muscle fibres, three micro-electrode Gm measurement

Compound `CC(C)[C@@H](Oc1ccc(Br)cc1F)C(=O)O` [Compound A-4, (2R)-2-(4-bromo-2-fluoraphenoxy)-3-methylbutanoic acid] has an EC50 of over 80 µM.
